Experimental data: PubChem BioAssay AID504327 (National Center for Advancing Translational Sciences (NCATS), 2011)
Several values for one entry are separate records, joined by “and”; a condition that tells them apart may be missing. Equal values may be shown once. Only a part is listed here, and it is no random draw. Results filed as inconclusive are left out. Activity calls are given as the source filed them. The call rests on the fitted dose curve; in most records, active means well fitted inhibition curve with a large enough effect; inconclusive means small, poorly fitted or top-dose-only effect, or another doubt; inactive means no such curve, though single readings can be large or run the other way.
On the % scale 0 is the no-effect control and ±100 the full control effect.

Sequences of proteins named here, by UniProt entry; tags and fusion partners are left off.
UniProt Q92830, whole entry: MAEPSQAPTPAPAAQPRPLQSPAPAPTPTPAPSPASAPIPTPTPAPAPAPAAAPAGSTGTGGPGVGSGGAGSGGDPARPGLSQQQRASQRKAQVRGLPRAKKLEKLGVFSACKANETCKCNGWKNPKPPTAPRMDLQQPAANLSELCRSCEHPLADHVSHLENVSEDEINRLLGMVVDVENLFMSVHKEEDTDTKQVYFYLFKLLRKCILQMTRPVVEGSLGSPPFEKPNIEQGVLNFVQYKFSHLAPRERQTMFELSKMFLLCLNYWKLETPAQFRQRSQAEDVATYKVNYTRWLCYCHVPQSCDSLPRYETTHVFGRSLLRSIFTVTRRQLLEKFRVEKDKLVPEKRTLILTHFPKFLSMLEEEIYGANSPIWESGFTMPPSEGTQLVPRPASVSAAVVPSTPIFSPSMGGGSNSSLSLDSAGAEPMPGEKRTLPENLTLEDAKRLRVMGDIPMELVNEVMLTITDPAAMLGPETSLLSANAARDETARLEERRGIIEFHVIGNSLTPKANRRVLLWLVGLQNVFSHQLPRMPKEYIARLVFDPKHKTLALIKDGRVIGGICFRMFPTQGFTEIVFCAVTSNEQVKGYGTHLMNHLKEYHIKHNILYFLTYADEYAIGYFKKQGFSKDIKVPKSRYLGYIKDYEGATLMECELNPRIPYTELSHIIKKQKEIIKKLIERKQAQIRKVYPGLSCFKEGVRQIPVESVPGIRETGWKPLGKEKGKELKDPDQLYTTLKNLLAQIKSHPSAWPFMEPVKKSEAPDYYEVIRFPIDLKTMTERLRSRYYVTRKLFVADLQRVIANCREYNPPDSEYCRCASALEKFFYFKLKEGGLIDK

These compounds were tested against Histone acetyltransferase KAT2A (Homo sapiens) (UniProt Q92830) (assay: qHTS Assay for Inhibitors of GCN5L2). Conditions: GCN5L2 HAT assay, ThioGlo1 CoA-SH fluorescence; at 58.9 µM (top of the series) unless noted.
For `COc1ccccc1OP(C)(=O)Nc1ccccc1` (stereo not given), the activity change, negative = inhibition was inactive: -3.64%.
`CP(=O)(Nc1ccccc1Br)Oc1ccccc1` (stereo not given) was tested, and the activity change, negative = inhibition was inactive: -9.03%.
In the case of `CP(=S)(Nn1cnnc1)Oc1ccccc1` (stereo not given), the activity change, negative = inhibition is reported as inactive: 3.31%.
`Cc1cc(C)cc(OP(C)(=O)Nc2ccc(SC(F)(F)F)cc2)c1` (stereo not given) was tested, and the activity change, negative = inhibition was inactive: -11.7%.
`CCc1ccc(OP(C)(=O)N2CCN(c3ccc([N+](=O)[O-])cc3)CC2)cc1` (stereo not given) was tested, and the activity change, negative = inhibition was inactive: -0.177%.
For `CP(=O)(NC(=O)Nc1ccccc1)Oc1ccccc1` (stereo not given), the activity change, negative = inhibition was inactive: -1.44%.
In the case of `CP(=O)(Oc1ccccc1)OC(c1ccccc1)C(F)(F)F` (stereo not given), the activity change, negative = inhibition is reported as inactive: -3.89%.
With `Cc1cccc(C)c1OP(C)(=O)Nc1ccc(SC(F)(F)F)cc1` (stereo not given) the activity change, negative = inhibition was inactive: -7.61%.
With `CP(=O)(Nc1ccc(SC(F)(F)F)cc1)Oc1ccc(Cl)cc1` (stereo not given) the activity change, negative = inhibition was inactive: -3.87%.
In the case of `CCOP(C)(=S)SCC(=O)NC(C)C(=O)O` (stereo not given), the activity change, negative = inhibition is reported as inactive: -1.28%.
In the case of `CN(C)CCS`, the activity change, negative = inhibition is reported as inactive: 0.892%.
In the case of `CCOC(=O)c1ccc(NP(C)(=O)Oc2ccc(OC)cc2)cc1` (stereo not given), the activity change, negative = inhibition is reported as inactive: -12.8%.
In the case of `CCN(CC)CCCOC(=O)C(O)(c1ccccc1)c1ccccc1`, the activity change, negative = inhibition is reported as inactive: 0.879%.
`O=[N+]([O-])[O-].[NH4+]` was tested, and the activity change, negative = inhibition was inactive: 17.8%.
With `O=C(O)C(O)(c1ccccc1)c1ccccc1` the activity change, negative = inhibition was inactive: 0%.
For `Cc1cccc(C)c1OP(C)(N)=O` (stereo not given), the activity change, negative = inhibition was inactive: -20.6%.
With `CC(C)(C)c1ccc(OP(C)(=O)Nc2ccc(SC(F)(F)F)cc2)cc1` (stereo not given) the activity change, negative = inhibition was inactive: -18.9%.
In the case of `O=[N+]([O-])c1ccc2c(c1)C=Nc1ccccc1O2`, the activity change, negative = inhibition is reported as inactive: -7.54%.
For `O=[N+]([O-])c1cc([N+](=O)[O-])c(Nc2cccnc2)c([N+](=O)[O-])c1`, the activity change, negative = inhibition was inactive: -2.67%.
`O=C(O)C1(O)c2ccccc2-c2ccccc21` was tested, and the activity change, negative = inhibition was inactive: 0.556%.
`COc1ccc(OP(C)(=O)Nc2cccc(F)c2)cc1` (stereo not given) was tested, and the activity change, negative = inhibition was inactive: 0%.
`COc1ccccc1OP(C)(=O)Nc1cc(Cl)ccc1C` (stereo not given) was tested, and the activity change, negative = inhibition was inactive: 5.57%.
In the case of `CCOC(=O)c1ccc(NP(C)(=O)Oc2ccccc2)cc1` (stereo not given), the activity change, negative = inhibition is reported as inactive: 0.82%.
For `Cc1ccc(NP(C)(=O)Oc2ccccc2)c(C)c1` (stereo not given), the activity change, negative = inhibition was inactive: -6.32%.
For `COc1ccccc1OP(C)(=O)Nc1ccc(C)cc1` (stereo not given), the activity change, negative = inhibition was inactive: -2.77%.
In the case of `O=[N+]([O-])c1cccc([N+](=O)[O-])c1`, the activity change, negative = inhibition is reported as inactive: 13.6%.
For `O=[N+]([O-])OCC(CO[N+](=O)[O-])(CO[N+](=O)[O-])CO[N+](=O)[O-]`, the activity change, negative = inhibition was inactive: 1.1%.
In the case of `CC1=NCCc2c1[nH]c1ccccc21.O=[N+]([O-])c1cc([N+](=O)[O-])c(O)c([N+](=O)[O-])c1`, the activity change, negative = inhibition is reported as inactive: -13.1%.
For `Cc1cc(C)cc(OP(C)(=O)Nc2ccc(C)cc2C)c1` (stereo not given), the activity change, negative = inhibition was inactive: -11.6% [at 0.501 µM].
For `CCOC(=O)c1ccc(NP(C)(=O)Oc2cc(C)cc(C)c2)cc1` (stereo not given), the activity change, negative = inhibition was inactive: -2.11%.
For `CP(=O)(Nc1cccc(Br)c1)Oc1ccccc1` (stereo not given), the activity change, negative = inhibition was inactive: -5.99%.
`Cc1cc(C)cc(OP(C)(=O)Nc2ccccn2)c1` (stereo not given) was tested, and the activity change, negative = inhibition was inactive: -1.15%.
With `Cc1ccc(C)c(NP(C)(=O)Oc2ccccc2)c1` (stereo not given) the activity change, negative = inhibition was inactive: -3.94%.
For `O=[N+]([O-])c1cc([N+](=O)[O-])c(-n2nnc3ccccc32)c([N+](=O)[O-])c1`, the activity change, negative = inhibition was inactive: -14.4%.
For `Cc1nc2ccc3ccccc3c2s1.O=[N+]([O-])c1cc([N+](=O)[O-])c(O)c([N+](=O)[O-])c1`, the activity change, negative = inhibition was inactive: -18.4%.
For `O=[N+]([O-])c1cc([N+](=O)[O-])c(Nc2nnnn2CCO)c([N+](=O)[O-])c1`, the activity change, negative = inhibition was inactive: -8.38%.
With `CC1=C2N=C(C=C3N=C(C(C)=C4[N-][C@@](C)([C@@H]5N=C1[C@](C)(CCC(=O)NC[C@@H](C)OP(=O)([O-])O[C@H]1[C@@H](O)[C@@H](n6cnc7cc(C)c(C)cc76)O[C@@H]1CO)[C@H]5CC(N)=O)[C@@](C)(CC(N)=O)[C@@H]4CCC(N)=O)[C@@](C)(CC(N)=O)[C@@H]3CCC(N)=O)C(C)(C)[C@@H]2CCC(N)=O.[C-]#N.[Co+3]` the activity change, negative = inhibition was inactive: -9.32%.
In the case of `CP(=O)(Nc1ccc(SC(F)(F)F)cc1)Oc1ccccc1` (stereo not given), the activity change, negative = inhibition is reported as inactive: -2.78%.
For `CCCOc1ccc(NP(C)(=O)Oc2ccc(Cl)cc2)cc1` (stereo not given), the activity change, negative = inhibition was inactive: -6.61%.
For `OCCN(CCO)CCO`, the activity change, negative = inhibition was inactive: 14.5% and inactive: 38.6%.
With `COc1ccccc1OP(C)(=O)Nc1c(C)cccc1C` (stereo not given) the activity change, negative = inhibition was inactive: -7.61%.
With `CN1CCCCC1COC(=O)C1(O)c2ccccc2CCc2ccccc21` (stereo not given) the activity change, negative = inhibition was inactive: -2.95%.
With `COc1ccc(NP(C)(=O)Oc2ccccc2OC)cc1` (stereo not given) the activity change, negative = inhibition was inactive: -6.92%.
For `CN(C)CCOC(=O)C(O)(c1ccccc1)C1CCCCC1` (stereo not given), the activity change, negative = inhibition was inactive: -2.5%.
With `COc1ccc(OP(C)(=O)Nc2cccc(Br)c2)cc1` (stereo not given) the activity change, negative = inhibition was inactive: -5.55%.
With `Cc1cc(-c2cccc3ccccc23)c(C)cn1.O=[N+]([O-])c1cc([N+](=O)[O-])c(O)c([N+](=O)[O-])c1` the activity change, negative = inhibition was inactive: -17.7%.
With `O=[N+]([O-])c1ccc(OP2(=O)COCCO2)cc1` (stereo not given) the activity change, negative = inhibition was inactive: 2.48%.
With `CCOP(C)(=S)SCC(=O)NC(C)(CC)C(=O)O` (stereo not given) the activity change, negative = inhibition was inactive: -4.42%.
For `CP(=O)(Nc1ccc(SC(F)(F)F)cc1)Oc1ccc(F)cc1` (stereo not given), the activity change, negative = inhibition was inactive: 0.317%.
`CCN(CCCl)Cc1ccccc1C` was tested, and the activity change, negative = inhibition was inactive: 0.765%.
`Cc1ccccc1NP(C)(=O)Nc1ccccc1C` was tested, and the activity change, negative = inhibition was inactive: -5.96%.
With `CP(=O)(Nc1ccc2c(c1)OCCO2)Oc1ccccc1` (stereo not given) the activity change, negative = inhibition was inactive: -2.63%.
For `CC(C)c1ccc(OP(C)(=O)Nc2ccc(SC(F)(F)F)cc2)cc1` (stereo not given), the activity change, negative = inhibition was inactive: -21.1%.
`CP(=O)(Nc1ccccc1F)Oc1ccccc1` (stereo not given) was tested, and the activity change, negative = inhibition was inactive: 1.66%.
`COc1ccc(OP(C)(=O)Nc2ccc(SC(F)(F)F)cc2)cc1` (stereo not given) was tested, and the activity change, negative = inhibition was inactive: -19.5%.
In the case of `CCOC(=O)c1ccc(NP(C)(=O)Oc2ccc(F)cc2)cc1` (stereo not given), the activity change, negative = inhibition is reported as inactive: -2.23%.
For `CCCCCOc1ccc(NP(C)(=O)Oc2ccc(Cl)cc2Cl)cc1` (stereo not given), the activity change, negative = inhibition was inactive: -17.5%.
With `CP(=O)(Nc1ccccc1)Oc1ccc(F)cc1` (stereo not given) the activity change, negative = inhibition was inactive: -15.9%.
In the case of `CCN(CC)CCCOC(=O)C(O)(c1ccccc1)C1CCCCC1` (stereo not given), the activity change, negative = inhibition is reported as inactive: -3.38%.
For `COc1ccc(OP(C)(=O)Nc2ccccc2Br)cc1` (stereo not given), the activity change, negative = inhibition was inactive: -4.83%.
